{"source": "PubChem BioAssay AID602217", "about": "(Sanford-Burnham Center for Chemical Genomics, 2012)", "system": "HL-1 cardiomyocytes, 2-deoxyglucose injury, ATPLite luminescence, 2 h", "assay": "protection of HL-1 cardiomyocytes from 2-deoxyglucose injury, dose response, cell-based, ATPLite luminescence (AID 602217);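 also: cells kept in glucose-free DMEM during the 2-deoxyglucose injury; potency of protection where actives preserve ATP signal against 2-deoxyglucose stress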", "note": "Calls of active or inactive are those of the source.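 The calls were made as follows: active = IC50 at or below a set limit; inactive = the rest.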", "data": [{"smiles": "NC(=O)c1ccsc1NC(=O)c1ccc([N+](=O)[O-])o1", "values": [{"measurement": "IC50", "result": "inactive: > 79 µM"}]}]}
